Experimental findings from BindingDB's records for doi:10.1002/cbic.201300187 (The Johns Hopkins University, 2013) are described below.

Structures are written as SMILES.

The target in this assay is T1, 1-deoxy-D-xylulose-5-phosphate synthase (Escherichia coli (strain K12), UniProt P77488).
T1 sequence (P77488 whole entry): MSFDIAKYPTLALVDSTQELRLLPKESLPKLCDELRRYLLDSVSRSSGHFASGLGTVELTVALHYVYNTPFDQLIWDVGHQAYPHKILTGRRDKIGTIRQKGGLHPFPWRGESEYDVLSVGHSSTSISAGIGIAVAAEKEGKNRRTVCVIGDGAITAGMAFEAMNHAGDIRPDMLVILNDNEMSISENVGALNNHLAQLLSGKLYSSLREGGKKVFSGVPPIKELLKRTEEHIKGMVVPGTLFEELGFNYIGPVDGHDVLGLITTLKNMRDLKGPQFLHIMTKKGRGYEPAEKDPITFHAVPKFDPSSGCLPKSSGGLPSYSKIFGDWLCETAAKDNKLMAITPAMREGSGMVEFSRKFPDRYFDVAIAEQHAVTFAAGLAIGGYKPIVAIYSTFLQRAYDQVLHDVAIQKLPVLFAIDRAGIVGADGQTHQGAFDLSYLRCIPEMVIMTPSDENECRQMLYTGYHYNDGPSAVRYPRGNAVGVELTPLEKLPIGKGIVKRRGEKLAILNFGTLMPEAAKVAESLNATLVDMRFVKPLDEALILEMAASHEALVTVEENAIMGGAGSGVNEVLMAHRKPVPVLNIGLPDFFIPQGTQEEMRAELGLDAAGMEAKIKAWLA
Kind of assay: DXP Synthase Inhibition Assay. The following applies: pH 8; 37 °C. The method, then: Reaction mixtures containing HEPES (100mM, pH 8.0, 2mM MgCl2, 5mM NaCl), ThDP (1mM), BSA (1mg/mL), DMSO (10%, v/v), ᴅ-GAP (30µM), pyruvate (80µM), and various concentrations of nitroso inhibitor were preincubated at 37°C for 5 min. Enzyme reactions were initiated by addition of DXP synthase (0.1µM). Aliquots (150µL) of the enzymatic mixture were removed between 0.5 and 3 min and quenched in ice-cold methanol (150µL).

`Cc1ccccc1N=O` [1‐methyl‐2‐nitrosobenzene (Substrate 3)]: the midpoint of inhibition, the IC50, lay at 291 µM.
